Test results from patent publication US20120077957A1, “Lactam-Bridged Melanocortin Receptor-Specific Peptides” (PALATIN TECHNOLOGIES, INC., priority 2009, published 2012).

The chains behind the UniProt entries cited, without tags or fusion partners.
UniProt P32245, whole entry: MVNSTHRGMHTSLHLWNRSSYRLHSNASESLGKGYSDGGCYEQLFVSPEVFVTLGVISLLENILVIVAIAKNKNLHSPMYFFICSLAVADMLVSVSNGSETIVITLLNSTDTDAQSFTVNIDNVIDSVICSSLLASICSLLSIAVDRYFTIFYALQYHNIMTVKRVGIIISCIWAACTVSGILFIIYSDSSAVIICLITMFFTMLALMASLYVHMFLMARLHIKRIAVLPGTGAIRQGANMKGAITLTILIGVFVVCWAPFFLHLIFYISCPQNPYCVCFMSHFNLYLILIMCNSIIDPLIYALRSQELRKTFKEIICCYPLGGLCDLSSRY

Key:
[1] = biological target: T1, human MC4-R (Homo sapiens, UniProt P32245); assay: Competitive inhibition binding assay with [I125]-NDP-α-MSH or Eu-NDP-α-MSH, membranes of HEK-293 cells expressing recombinant hMC4-R
T1 construct: expressed in transfected cells; host or cells: HEK293 T-REx (tetracycline-regulated, Invitrogen); cell line from Palatin Technologies with license from the University of Michigan
Protocol: A competitive inhibition binding assay was performed using membrane homogenates prepared from HEK-293 cells that express recombinant hMC4-R, hMC3-R, or hMC5-R, and from B-16 mouse melanoma cells (containing endogenous MC1-R). In some instances, HEK-293 cells that express recombinant hMC1-R were employed. In the examples that follow, all MC3-R, MC4-R and MC5-R values are for human recombinant receptors. […] After incubation for 60 minutes at 37° C., the assay mixture was filtered and the membranes washed three times with ice-cold buffer. Filters were dried and counted in a gamma counter for bound radioactivity. […] Maximal specific binding (100%) was defined as the difference in radioactivity (cpm) bound to cell membranes in the absence and presence of 1 μM NDP-α-MSH. […] Ki values for test peptides of the present invention were determined using Graph-Pad Prism® curve-fitting software.
Alternatively, a competitive inhibition binding assay was performed employing Eu-NDP-α-MSH (PerkinElmer Life Sciences catalog No. AD0225) with determination by time-resolved fluorometry (TRF) of the lanthanide chelate. […] After incubation for 90 minutes at 37° C., the reaction was stopped by filtration over AcroWell 96-well filter plates (Pall Life Sciences). The filter plates were washed 4 times with 200 μL of ice-cold phosphate-buffered saline. DELFIA Enhancement solution (PerkinElmer Life Sciences) was added to each well. […] Each assay was conducted in duplicate and mean values were utilized. Ki values were determined by curve-fitting with Graph-Pad Prism® software using a one-site fixed-slope competition binding model.

[2] = biological target: T1, human MC4-R; assay: cAMP functional assay in HEK-293 T-REx cells expressing human MC4-R, induced with doxycycline 0.1 ng/mL (low density); format: cell-based; conditions: averages of all comparable assays
Source text: A HEK293 cell line transfected with human MC4-R (from Palatin Technologies, US, with license from the University of Michigan) was used. The human MC4-R was introduced to HEK293 by using the T-REx™ System, Invitrogen. The T-REx™ System employs a tetracycline-regulated mammalian expression system that uses regulatory elements from the E. coli Tn10-encoded tetracycline (Tet) resistance operon. By use of the T-REx™ System, expression of the gene of interest, the human MC4-R gene, is repressed in the absence of tetracycline or doxycycline and induced in the presence of tetracycline or doxycycline (see T-REx™ System Manual, published by Invitrogen).
Cells were then counted and volume was adjusted to 5×10^4 cells per 200 μL.
The cells were then dispensed into 96-well plates (BD 353916) in 198 μL (about 5×10^4) cells/well and incubated for 10 minutes at 37° C. […]
Agonist stimulation of the MC4-R activates adenylate cyclase, which is an enzyme that catalyses the formation 3′,5′-cyclic adenosine monophosphate (cAMP) from adenosine triphosphate (ATP). […] Fluoresence ratios were then calculated as described in the CisBio HTRF kit, with GraphPad Prism software used to plot the change in fluorescence percent values versus cAMP concentration using the variable slope dose response curve and, based on calculated cAMP concentrations, to determine EC50 and Emax values. […]

[3] = human MC4-R, averages of all comparable assays, read-out: Ki

Ki [1, 3] | EC50 [2] | Ki [1] | Structure (SMILES)
4 nM | 0.7 nM |  | CC(=O)N[C@@H](CCCNC(=N)N)C(=O)N[C@H]1CCC(=O)NCCC[C@@H](C(N)=O)NC(=O)[C@H](Cc2c[nH]c3ccccc23)NC(=O)[C@H](CCCNC(=N)N)NC(=O)[C@@H](Cc2ccccc2)NC(=O)[C@H](CCCNC(=N)N)NC1=O [No. 10, Ac-Arg-cyclo(Glu-Arg-D-Phe-Arg-Trp-Orn)-NH2]
 | 2 nM | 6 nM | CC(=O)N[C@@H](CCCNC(=N)N)C(=O)N[C@H]1CCC(=O)NCCC[C@@H](C(N)=O)NC(=O)[C@H](Cc2c[nH]c3ccccc23)NC(=O)[C@H](CCCNC(=N)N)NC(=O)[C@@H](Cc2ccccc2)NC(=O)[C@H](CCCNC(N)=O)NC1=O [No. 15, Ac-Arg-cyclo(Glu-Cit-D-Phe-Arg-Trp-Orn)-NH2]
2 nM |  |  | CC(=O)N[C@@H](CCCNC(=N)N)C(=O)N[C@H]1CC(=O)NCCCC[C@@H](C(N)=O)NC(=O)[C@H](Cc2c[nH]c3ccccc23)NC(=O)[C@H](CCCNC(=N)N)NC(=O)[C@@H](Cc2ccccc2)NC(=O)[C@H](Cc2c[nH]cn2)NC1=O [reference compound]

Where two headings read alike, the source gives them in different places.
